Source: ChEMBL document CHEMBL6134796, “Development and Evaluation of Indole-Based Phospholipase D Inhibitors for Lung Cancer Immunotherapy” (J Med Chem, 2025)

How the values were obtained:
Assay type in all cases: cell-based
A549 [1] = test: Inhibition of EGFR-KRAS mediated signalling pathway in human A549 cells assessed as reduction in EGF stimulated EGFR phosphorylation by measuring fold change by immunoblot analysis
[2] = target: GTPase KRas (Homo sapiens) (UniProt P01116); test: Inhibition of KRAS in human A549 cells assessed as decrease in ERK phosphorylation by measuring fold change incubated for 24 hrs by immunoblot analysis
A549 [3] = test: Inhibition of EGFR-KRAS mediated signalling pathway in human A549 cells assessed as reduction in EGF stimulated ERK phosphorylation by measuring fold change by immunoblot analysis
[4] = target: GTPase KRas (Homo sapiens) (UniProt P01116); test: Inhibition of KRAS in human A549 cells assessed as decrease in KRAS-GTP level by measuring fold change incubated for 24 hrs by immunoblot analysis

fold change (FC) [2]: 0.2
fold change (FC) [4]: 0.4
Compound: O=C(CCc1c[nH]c2ccccc12)Nc1cc(C(F)(F)F)cc(C(F)(F)F)c1
fold change (FC) (A549 [1]): 19.8
fold change (FC) (A549 [3]): 1.5
